Reference: patent publication US20110236501A1, “INJECTABLE DUAL DELIVERY ALLOGRAPH BONE/POLYMER COMPOSITE FOR TREATMENT OF OPEN FRACTURES” (Vanderbilt University, priority 2007, published 2011)

Experiments:
[1] = In vitro release of BMP-2 from PUR scaffolds (ELISA); assay type: physicochemical
Procedure: Small pieces of PUR scaffold incorporated with BMP-2 powder or PLGA particles encapsulated with BMP-2 were incubated in a-MEM containing 1% BSA under 37° C., and the medium was changed every 24 hours. Immunoassay (Human BMP-2 ELISA kit, from R&D systems) was adopted to determine the amount of BMP-2 released from the PUR scaffolds. […] Based on BSA-FITC release data, further decreasing the size of the PLGA particles is expected to achieve a more sustained profile, and the experiment is undergoing.
(§1) BMP-2 was reconstituted in PBS according to the manufacturer's instructions and mixed with heparin and glucose. The resulting solution was lyophilized to yield a dry powder, which was added to the hardener component of the PUR scaffold prior to mixing. Subsequently, Desmodur N3300A polyisocyanate (hexamethylene diioscyanate trimer) was added to the hardener component to prepare the PUR scaffold using published techniques. The PUR scaffolds each contained 2.5 μg BMP-2, 2 wt-% glucose (excipient), and 0.05 wt % heparin to stabilize the BMP-2. In some cases (PLGA-L and PLGA-S), BMP-2 was microencapsulated in PLGA (efficiency 80%) prior to incorporation in the polyurethane scaffold. In vitro release of BMP-2 in PBS at 37° C. was measured from 0 to 21 days by ELISA. The bioactivity of the released BMP-2 was determined by measuring alkaline phosphatase expression by MC3T3 cells incubated in released BMP-2 (FIG. 24).
Growth factors released from two-component polyurethanes with tunable release kinetics enhance new bone formation. Another advantage of PUR scaffolds is that the two-component reactive two-component molding process enables customization using added biologics (e.g., growth factors and/or antibiotics) at the point of care. […] In order to modulate the release kinetics, rhBMP2 (60 μg/ml) was incorporated in PUR scaffolds by either direct addition of a labile powder or by encapsulation in large (L) or small (S) PLGA microspheres prior to incorporation in the scaffold. […]

[2] = tested on: MC3T3 cells; test: Alkaline phosphatase (ALP) assay of released BMP-2; assay type: cell-based; conditions: BMP-2 released from PUR scaffold
Procedure: (§2) BMP-2 is known to stimulate alkaline phosphatase (ALP) expression and mineralization of MC3T3 cells. To evaluate the bioactivity of the released BMP-2, both ALP and mineralization assays (Von Kossa staining) were carried out. Based on the release profile, PUR/BMP-2 release samples from day 1 to 8 and PUR/PLGA-L-BMP-2 from day 1 to 10 were collected for the analysis respectively.
as §1

[3] = tested on: MC3T3 cells; test: Von Kossa mineralization assay of released BMP-2; assay type: cell-based; conditions: BMP-2 released from PUR scaffolds
Procedure: as §2

## BMP-2: recombinant human bone morphogenetic protein-2
[1]; BMP-2 encapsulated in 80 μm PLGA microspheres embedded in PUR
  duration of sustained BMP-2 release: up to 15 days
[1]; BMP-2 incorporated in PUR scaffolds as a powder
  BMP-2 release profile: a burst release occurred on the first day and little BMP-2 was release after day 8
[1]; labile powder in PUR
  duration of sustained release of rhBMP2: up to 21 days
[2]
  in vitro bioactivity of released BMP-2 (ALP expression): stimulated ALP expression; also recorded: significantly greater than that of the negative control (no BMP-2) and less than that of the positive control
[2]; listed as rhBMP2
  in vitro bioactivity of released BMP-2 (ALP expression): comparable to that of fresh rhBMP2
[3]
  bioactivity by Von Kossa mineralization assay: bioactive

Entries after “also recorded” stand apart in the source; their conditions may differ.
